Results from PMC6900541 (Proceedings of the National Academy of Sciences of the …, 2019).
Numbering of substitutions follows the chain as printed. In names and notes the source's numbering stands.

T1: human PD-L2 ectodomain (human, UniProt Q9BQ51 20-220)
T1 sequence: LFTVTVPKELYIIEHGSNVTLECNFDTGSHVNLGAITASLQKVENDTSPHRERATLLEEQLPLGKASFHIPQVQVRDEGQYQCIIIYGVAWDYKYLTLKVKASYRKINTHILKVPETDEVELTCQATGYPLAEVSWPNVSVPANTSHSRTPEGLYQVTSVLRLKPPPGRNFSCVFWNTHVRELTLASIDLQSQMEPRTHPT

B1: human PD-1 (wild type), PD-1-Fc (Fc fusion)
chain: LDSPDRPWNPPTFSPALLVVTEGDNATFTCSFSNTSESFVLNWYRMSPSNQTDKLAAFPEDRSQPGQDCRFRVTQLPNGRDFHMSVVRARRNDSGTYLCGAISLAPKAQIKESLRAELRVTERRAEVPTAHPSPSPRPAGQFQTLV
B2: human PD-1 N74G, PD-1-Fc (Fc fusion)
chain: B1 chain with N50G
B3: human PD-1 T76P, PD-1-Fc (Fc fusion)
chain: B1 chain with T52P
B4: human PD-1 A132V, PD-1-Fc (Fc fusion)
chain: B1 chain with A108V

Molecular target: T1, human PD-L2 ectodomain
Assay: BLI

Going from B1 to B2, the Kd falls from 500 nM to 170 nM (2.9-fold).

Compared with B3, B4 is 5.8-fold higher in Kd: 12 nM for the first, 69 nM for the second.
